Assay results: patent publication US20220023312A1, “METHODS AND SYSTEMS FOR DETECTING PSYCHOTIC DISORDERS ASSOCIATED WITH SEROTONIN RECEPTOR DEFICIENCIES” (ARIZONA BOARD OF REGENTS ON BEHALF OF THE UNIVERSITY OF …, priority 2016, published 2022)
Like-named read-outs stand apart in the source and are kept apart here.

[1] = Example 3, person, one hour following administration
[2] = Example 4, person, one hour following administration
[3] = Example 6, person, one hour after administration

Compound: Cc1cc2c(s1)Nc1ccccc1N=C2N1CCN(C)CC1 [olanzapine]
- eye test: time patient keeps eyes open [1]: more than 10 seconds
- respiratory rate, oxygen saturation, and pulse [1]: not significantly altered
- arousal by sternal rub [2]: barely aroused
- eye test: time patient keeps eyes open [2]: ≤ 3 s
- pulse [2]: decrease in pulse
- respiratory rate [2]: Respiratory depression is observed
- ability to keep eyes open [3]: unable to keep their eyes open
- duration of sleep after administration [3]: 1 h
